Data taken from patent US11214803B2, “Modulators of YAP1 expression” (Ionis Pharmaceuticals, Inc., priority 2019, dated 2022).

System: SNU449 xenograft tumor
Experiment: Tumor volume in SNU449 xenograft tumor model, alone and in combination with sorafenib (second Example 30)
Type: in vivo, human
Details: oligonucleotide 50 mg/kg, sorafenib 30 mg/kg orally
Experimental: Modified oligonucleotides described in the studies above were tested in a hepatocellular carcinoma SNU449 xenograft tumor model. In addition to testing the modified oligonucleotide by itself, combination therapy with sorafenib was also tested. A control oligonucleotide 792169, described herein above, was also tested.
Five million SNU449 cells in 30% matrigel were implanted subcutaneously into the fatpads of female NOD.Cg-Prkdcscid II2rgtmlWjl/SzJ mice (from Jackson Laboratory) at 4-6 weeks of age. 43 days post implantation (when tumors had reached approximately 100 mm^3 in size), groups of eight mice each were administered with 50 mg/kg modified oligonucleotide daily for 10 days (loading dose), following which they were administered with 50 mg/kg modified oligonucleotide four times a week for one week, following which they were dosed with 50 mg/kg modified oligonucleotide thrice weekly until the end of the study. Another group of 8 animals was treated with 30 mg/kg of sorafenib orally 7 times a week until end of study. […]
Tumor volumes were also measured at the indicated days in the table below.

CNC(=O)c1cc(Oc2ccc(NC(=O)Nc3ccc(Cl)c(C(F)(F)F)c3)cc2)ccn1 [sorafenib]
Average Tumor Volume (day 60 post tumor implantation): 234 mm^3 | Average Tumor Volume (day 64 post tumor implantation): 217 mm^3
